This is a selection; strong and weak results do not stand in their true shares. Some results for these compounds are left out of this collection, so the calls shown say nothing about other tests. Calls of active or inactive are those of the source.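 The calls were made as follows: active = percent response vs DMSO below 50%; inconclusive = fewer than 70 events counted for the yeast strain; inactive = the rest.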
assay: compounds altering RPL19A-GFP fluorescence, TOR branch – cell-based, S. cerevisiae, multiplex flow cytometry, MLPCN, primary screen (AID 2025);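 also: median channel GFP fluorescence of the barcoded RPL19A-GFP strain; ratio of sample median GFP to plate DMSO average so 100% = DMSO; lower means less RPL19A-GFP as with rapamycin TOR inhibition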; conditions: S. cerevisiae RPL19A-GFP strain, 3 h, at 10 µM, stronger effect = lower value

| SMILES | percent response vs DMSO |
| --- | --- |
| CCN(CC)CC(C)C(C)OC(=O)C(O)(c1ccccc1)c1ccccc1 (centres undefined) | inactive: 96.9% |
| COc1cc(SC)ccc1C(=O)NCC1(N(C)C)CCCCC1 | inactive: 92.2% |
| CC(C)N1C(=O)CC2(CCN(CCOC(=O)C(O)(c3ccccc3)c3ccccc3)CC2)C1=O | inactive: 96.3% |
| Cc1ccc(C(=O)NCC2(N3CCCCC3)CCCCC2)cc1 | inactive: 104% |
| O=C(NCC1(N2CCCCC2)CCCCC1)c1cc([N+](=O)[O-])ccc1Cl | inactive: 95.5% |
| CN1[C@@H]2CC[C@H]1CC(OC(=O)C(O)(c1ccccc1)c1ccccc1)C2 (some centres undefined) | inactive: 101% |
| C=CCN1CCN(CCOC(=O)C(O)(c2ccccc2)c2ccccc2)CC1 | inactive: 98.4% |
| O=C(NCC1(N2CCCCC2)CCCCC1)c1cc(F)c(F)cc1Cl | inactive: 99.8% |
| COc1ccc(C(=O)NCC2(N(C)C)CCCCC2)cc1 | inactive: 101% |
| Cc1cc(C(=O)NCC2(N3CCCCC3)CCCCC2)ccc1[N+](=O)[O-] | inactive: 55% |
| CCN1CCCC(OC(=O)C2(O)c3ccccc3C=Cc3ccccc32)C1 (centres undefined) | inactive: 99.8% |
| O=C(NCC1(N2CCCCC2)CCCCC1)c1cccc(Br)c1 | inactive: 107% |
| Cc1ccccc1C(=O)NCC1(N2CCCCC2)CCCCC1 | inactive: 99.6% |
| CN(C)C1CCCC1OC(=O)C(O)(c1ccccc1)c1ccccc1 (centres undefined) | inactive: 110% |
| CN(C)c1ccc(C(=O)NCC2(N(C)C)CCCCC2)cc1 | inactive: 106% |
| COc1cccc(C(=O)NCC2(N3CCCCC3)CCCCC2)c1 | inactive: 101% |
| COc1ccc(Cl)cc1C(=O)NCC1(N(C)C)CCCCC1 | inactive: 102% |
| O=C(NCC1(N2CCCCC2)CCCCC1)c1cccc(Cl)c1 | inactive: 104% |
| CN(C)C1(CNC(=O)c2ccc(Br)cc2)CCCCC1 | inactive: 106% |
| COc1cc(C(=O)NCC2(N(C)C)CCCCC2)c([N+](=O)[O-])cc1OC | inactive: 96.8% |
| COc1ccc(Br)c(C(=O)NCC2(N3CCCCC3)CCCCC2)c1 | inactive: 108% |
| CC(C)Oc1ccc(C(=O)NCC2(N(C)C)CCCCC2)cc1 | inactive: 101% |
| CN(C)c1cccc(C(=O)NCC2(N(C)C)CCCCC2)c1 | inactive: 99.9% |
| O=C(OC1CN2CCC1CC2)C(CO)(c1ccccc1)c1ccccc1 (centres undefined) | inactive: 101% |

From PubChem BioAssay AID2025 (NMMLSC, 2009)
